In PubChem BioAssay (NCI):
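Briefly, cells in 96-well plates were exposed to five compound concentrations for 48 h, and endpoints were estimated by linear interpolation. At the GI50, growth is halved. TGI denotes the concentration required for complete inhibition of growth.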

Columns and labels:
Assay in all cases: growth of human tumour cells (NCI), 48 h
786-0 renal = test system: 786-0 renal
A498 renal = test system: A498 renal
A549 NSCLC = test system: A549 NSCLC
ACHN renal = test system: ACHN renal
BT-549 breast = test system: BT-549 breast
CAKI-1 renal = test system: CAKI-1 renal
COLO 205 colon = test system: COLO 205 colon
DU-145 prostate = test system: DU-145 prostate
EKVX NSCLC = test system: EKVX NSCLC
HCT-116 colon = test system: HCT-116 colon
HCT-15 colon = test system: HCT-15 colon
HOP-62 NSCLC = test system: HOP-62 NSCLC
HOP-92 NSCLC = test system: HOP-92 NSCLC
HS 578T breast = test system: HS 578T breast
HT29 colon = test system: HT29 colon
IGROV1 ovarian = test system: IGROV1 ovarian
K-562 leukemia = test system: K-562 leukemia
KM12 colon = test system: KM12 colon
LOX IMVI melanoma = test system: LOX IMVI melanoma
M14 melanoma = test system: M14 melanoma
MALME-3M melanoma = test system: MALME-3M melanoma
MCF7 breast = test system: MCF7 breast
MDA-MB-231 breast = test system: MDA-MB-231 breast
MDA-MB-435 = test system: MDA-MB-435
MDA-N = test system: MDA-N
MOLT-4 leukemia = test system: MOLT-4 leukemia
NCI-H226 lung = test system: NCI-H226 lung
NCI-H23 lung = test system: NCI-H23 lung
NCI-H322M lung = test system: NCI-H322M lung
NCI-H460 lung = test system: NCI-H460 lung
NCI-H522 lung = test system: NCI-H522 lung
NCI/ADR-RES ovarian = test system: NCI/ADR-RES ovarian
OVCAR-3 ovarian = test system: OVCAR-3 ovarian
OVCAR-4 ovarian = test system: OVCAR-4 ovarian
OVCAR-5 ovarian = test system: OVCAR-5 ovarian
OVCAR-8 ovarian = test system: OVCAR-8 ovarian
PC-3 prostate = test system: PC-3 prostate
RPMI-8226 leukemia = test system: RPMI-8226 leukemia
RXF 393 renal = test system: RXF 393 renal
SF-268 CNS = test system: SF-268 CNS
SF-295 CNS = test system: SF-295 CNS
SF-539 CNS = test system: SF-539 CNS
SK-MEL-2 melanoma = test system: SK-MEL-2 melanoma
SK-MEL-28 melanoma = test system: SK-MEL-28 melanoma
SK-MEL-5 melanoma = test system: SK-MEL-5 melanoma
SK-OV-3 ovarian = test system: SK-OV-3 ovarian
SN12C renal = test system: SN12C renal
SNB-19 CNS = test system: SNB-19 CNS
SNB-75 CNS = test system: SNB-75 CNS
SR leukemia = test system: SR leukemia
SW-620 colon = test system: SW-620 colon
T-47D breast = test system: T-47D breast
TK-10 renal = test system: TK-10 renal
U251 CNS = test system: U251 CNS
UACC-257 melanoma = test system: UACC-257 melanoma
UACC-62 melanoma = test system: UACC-62 melanoma
UO-31 renal = test system: UO-31 renal
CCRF-CEM leukemia = test system: CCRF-CEM leukemia
DLD-1 colon = test system: DLD-1 colon
DMS 114 small cell lung = test system: DMS 114 small cell lung
DMS 273 small cell lung = test system: DMS 273 small cell lung
HCC-2998 colon = test system: HCC-2998 colon
HL-60(TB) leukemia = test system: HL-60(TB) leukemia
HOP-18 NSCLC = test system: HOP-18 NSCLC
KM20L2 colon = test system: KM20L2 colon
LXFL 529 NSCLC = test system: LXFL 529 NSCLC
M19-MEL melanoma = test system: M19-MEL melanoma
SNB-78 CNS = test system: SNB-78 CNS
XF 498 CNS = test system: XF 498 CNS

## O=C(O)C1(Nc2ccccc2)CCN(Cc2ccccc2)CC1
786-0 renal
  TGI: > 100 µM
A498 renal
  TGI: > 100 µM
A549 NSCLC
  TGI: > 100 µM
ACHN renal
  TGI: > 100 µM
BT-549 breast
  TGI: > 100 µM
CAKI-1 renal
  TGI: > 100 µM
COLO 205 colon
  TGI: > 100 µM
DU-145 prostate
  TGI: > 100 µM
EKVX NSCLC
  TGI: > 100 µM
HCT-116 colon
  TGI: > 100 µM
HCT-15 colon
  TGI: > 100 µM
HOP-62 NSCLC
  TGI: > 100 µM
HOP-92 NSCLC
  TGI: > 100 µM
HS 578T breast
  TGI: > 100 µM
HT29 colon
  TGI: > 100 µM
IGROV1 ovarian
  TGI: > 100 µM
K-562 leukemia
  TGI: > 100 µM
KM12 colon
  TGI: > 100 µM
LOX IMVI melanoma
  TGI: > 100 µM
M14 melanoma
  TGI: > 100 µM
MALME-3M melanoma
  TGI: > 100 µM
MCF7 breast
  TGI: > 100 µM
MDA-MB-231 breast
  TGI: > 100 µM
MDA-MB-435
  TGI: > 100 µM
MDA-N
  TGI: > 100 µM
MOLT-4 leukemia
  TGI: > 100 µM
NCI-H226 lung
  TGI: > 100 µM
NCI-H23 lung
  TGI: > 100 µM
NCI-H322M lung
  TGI: > 100 µM
NCI-H460 lung
  TGI: > 100 µM
NCI-H522 lung
  TGI: > 100 µM
NCI/ADR-RES ovarian
  TGI: > 100 µM
OVCAR-3 ovarian
  TGI: > 100 µM
OVCAR-4 ovarian
  TGI: > 100 µM
OVCAR-5 ovarian
  TGI: > 100 µM
OVCAR-8 ovarian
  TGI: > 100 µM
PC-3 prostate
  TGI: > 100 µM
RPMI-8226 leukemia
  TGI: > 100 µM
RXF 393 renal
  TGI: > 100 µM
SF-268 CNS
  TGI: > 100 µM
SF-295 CNS
  TGI: > 100 µM
SF-539 CNS
  TGI: > 100 µM
SK-MEL-2 melanoma
  TGI: > 100 µM
SK-MEL-28 melanoma
  TGI: > 100 µM
SK-MEL-5 melanoma
  TGI: > 100 µM
SK-OV-3 ovarian
  TGI: > 100 µM
SN12C renal
  TGI: > 100 µM
SNB-19 CNS
  TGI: > 100 µM
SNB-75 CNS
  TGI: > 100 µM
SR leukemia
  TGI: > 100 µM
SW-620 colon
  TGI: > 100 µM
T-47D breast
  TGI: > 100 µM
TK-10 renal
  TGI: > 100 µM
U251 CNS
  TGI: > 100 µM
UACC-257 melanoma
  TGI: > 100 µM
UACC-62 melanoma
  TGI: > 100 µM
UO-31 renal
  TGI: > 100 µM

## O=NN(CCSCCCl)C(=O)NC1CCCCC1
786-0 renal
  GI50: 23.4 µM
  TGI: 73.2 µM
A498 renal
  GI50: 43.1 µM
  TGI: > 100 µM
A549 NSCLC
  GI50: 30.2 µM
  TGI: > 100 µM
ACHN renal
  GI50: 6.78 µM
  TGI: 61.9 µM
BT-549 breast
  GI50: 17.9 µM
  TGI: 41.2 µM
CAKI-1 renal
  GI50: 16 µM
  TGI: 58.2 µM
CCRF-CEM leukemia
  GI50: 4.37 µM
  TGI: 82.7 µM
COLO 205 colon
  GI50: 42.2 µM
  TGI: 93.8 µM
DLD-1 colon
  GI50: 55.1 µM
  TGI: > 100 µM
DMS 114 small cell lung
  GI50: 13 µM
  TGI: 89.2 µM
DMS 273 small cell lung
  GI50: 15.3 µM
  TGI: 62.5 µM
DU-145 prostate
  GI50: 68.3 µM
  TGI: > 100 µM
EKVX NSCLC
  GI50: > 100 µM
  TGI: > 100 µM
HCC-2998 colon
  GI50: 42 µM
  TGI: 94.8 µM
HCT-116 colon
  GI50: 21.7 µM
  TGI: 33.5 µM
HCT-15 colon
  GI50: 23.9 µM
  TGI: 67.7 µM
HL-60(TB) leukemia
  GI50: 5.23 µM
  TGI: 40.2 µM
HOP-18 NSCLC
  GI50: 68.6 µM
  TGI: > 100 µM
HOP-62 NSCLC
  GI50: 36.1 µM
  TGI: 73 µM
HOP-92 NSCLC
  GI50: 26.2 µM
  TGI: 70.5 µM
HS 578T breast
  GI50: 9.75 µM
  TGI: 59.2 µM
HT29 colon
  GI50: 37 µM
  TGI: > 100 µM
IGROV1 ovarian
  GI50: 79 µM
  TGI: > 100 µM
K-562 leukemia
  GI50: 19.4 µM
  TGI: 37.8 µM
KM12 colon
  GI50: 61.1 µM
  TGI: > 100 µM
KM20L2 colon
  GI50: 29.9 µM
  TGI: 80.9 µM
LOX IMVI melanoma
  GI50: 16.3 µM
  TGI: 48.2 µM
LXFL 529 NSCLC
  GI50: 17.8 µM
  TGI: 37.5 µM
M14 melanoma
  GI50: 34.9 µM
  TGI: > 100 µM
M19-MEL melanoma
  GI50: 34.5 µM
  TGI: 79 µM
MALME-3M melanoma
  GI50: 42.9 µM
  TGI: 94.6 µM
MCF7 breast
  GI50: 8.96 µM
  TGI: > 100 µM
MDA-MB-231 breast
  GI50: 51.5 µM
  TGI: > 100 µM
MDA-MB-435
  GI50: 48.9 µM
  TGI: > 100 µM
MDA-N
  GI50: 39.2 µM
  TGI: > 100 µM
MOLT-4 leukemia
  GI50: 3.96 µM
  TGI: 59.3 µM
NCI-H226 lung
  GI50: 27.6 µM
  TGI: 81.5 µM
NCI-H23 lung
  GI50: 20.3 µM
  TGI: 65.9 µM
NCI-H322M lung
  GI50: > 100 µM
  TGI: > 100 µM
NCI-H460 lung
  GI50: 4.75 µM
  TGI: 74.9 µM
NCI-H522 lung
  GI50: 16.1 µM
  TGI: 34.6 µM
OVCAR-3 ovarian
  GI50: 38.6 µM
  TGI: > 100 µM
OVCAR-4 ovarian
  GI50: 70 µM
  TGI: > 100 µM
OVCAR-5 ovarian
  GI50: 51.5 µM
  TGI: 84.1 µM
OVCAR-8 ovarian
  GI50: 25.3 µM
  TGI: 50.2 µM
PC-3 prostate
  GI50: 35.1 µM
  TGI: > 100 µM
RPMI-8226 leukemia
  GI50: 24 µM
  TGI: 70 µM
RXF 393 renal
  GI50: 24.7 µM
  TGI: 47.7 µM
SF-268 CNS
  GI50: 24.8 µM
  TGI: 68.7 µM
SF-295 CNS
  GI50: 22.1 µM
  TGI: > 100 µM
SF-539 CNS
  GI50: 24.4 µM
  TGI: 55.5 µM
SK-MEL-2 melanoma
  GI50: 44.3 µM
  TGI: 63.7 µM
SK-MEL-28 melanoma
  GI50: 73.6 µM
  TGI: > 100 µM
SK-MEL-5 melanoma
  GI50: 47.8 µM
  TGI: > 100 µM
SK-OV-3 ovarian
  GI50: 56 µM
  TGI: > 100 µM
SN12C renal
  GI50: 28.9 µM
  TGI: 93.6 µM
SNB-19 CNS
  GI50: 55.1 µM
  TGI: > 100 µM
SNB-75 CNS
  GI50: 21.8 µM
  TGI: 66.3 µM
SNB-78 CNS
  GI50: > 100 µM
  TGI: > 100 µM
SR leukemia
  GI50: 4.13 µM
  TGI: 40.8 µM
SW-620 colon
  GI50: 19.4 µM
  TGI: 76.7 µM
T-47D breast
  GI50: 34.3 µM
  TGI: > 100 µM
TK-10 renal
  GI50: > 100 µM
  TGI: > 100 µM
U251 CNS
  GI50: 20 µM
  TGI: 73.1 µM
UACC-257 melanoma
  GI50: 36.3 µM
  TGI: 71.3 µM
UACC-62 melanoma
  GI50: 15.7 µM
  TGI: 59.2 µM
UO-31 renal
  GI50: 26.8 µM
  TGI: 61.5 µM
XF 498 CNS
  GI50: 24.9 µM
  TGI: 62.5 µM
